Chains of the proteins cited; added tags and fusions are not shown.
UniProt P29371, whole entry: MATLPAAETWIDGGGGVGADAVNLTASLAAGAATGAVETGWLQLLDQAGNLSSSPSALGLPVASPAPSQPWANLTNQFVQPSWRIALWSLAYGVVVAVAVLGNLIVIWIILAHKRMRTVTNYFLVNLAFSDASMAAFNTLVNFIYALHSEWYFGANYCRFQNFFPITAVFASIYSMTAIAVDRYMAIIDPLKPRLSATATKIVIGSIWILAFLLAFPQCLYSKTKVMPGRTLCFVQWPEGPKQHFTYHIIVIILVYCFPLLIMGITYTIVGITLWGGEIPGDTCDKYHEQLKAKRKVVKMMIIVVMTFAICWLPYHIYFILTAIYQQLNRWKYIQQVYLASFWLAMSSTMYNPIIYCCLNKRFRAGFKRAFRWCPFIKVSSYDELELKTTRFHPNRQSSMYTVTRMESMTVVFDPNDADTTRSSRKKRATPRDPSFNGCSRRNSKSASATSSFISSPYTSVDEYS
UniProt P21452, whole entry: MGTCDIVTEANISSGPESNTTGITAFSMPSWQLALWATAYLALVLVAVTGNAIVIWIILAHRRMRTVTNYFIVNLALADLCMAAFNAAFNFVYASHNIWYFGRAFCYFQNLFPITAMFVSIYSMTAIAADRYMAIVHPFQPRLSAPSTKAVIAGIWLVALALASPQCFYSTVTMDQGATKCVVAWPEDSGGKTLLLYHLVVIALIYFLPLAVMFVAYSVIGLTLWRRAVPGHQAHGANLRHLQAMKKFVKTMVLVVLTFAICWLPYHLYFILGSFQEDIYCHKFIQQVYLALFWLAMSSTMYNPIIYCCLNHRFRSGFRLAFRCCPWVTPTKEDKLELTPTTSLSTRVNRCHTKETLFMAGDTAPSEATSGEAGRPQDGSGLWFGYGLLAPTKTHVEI

In patent US20070219214A1, “Dual NK2/NK3-antagonists, pharmaceutical compositions comprising them, and processes for their preparation” (Solvay pharmaceuticals GmbH, priority 2006, published 2007):

How the values were obtained:
[1] = molecular target: T1, human NK3 receptor (Homo sapiens, UniProt P29371); assay: Binding potency of the test substances to NK3-receptors in vitro ([3H]-SR 142801 displacement); conditions: human NK3-receptor in CHO cell membranes, [3H]-SR 142801 (osanetant); average of at least three measurements
[2] = molecular target: T1, human NK3 receptor; assay: Functional cellular test, Ca2+ measurements using aequorin for NK3 activity; format: cell-based; conditions: cell line with human NK3 receptor and apoaequorin, agonist senktide 5x10-8 M
[3] = molecular target: T2, human NK2-receptor (Homo sapiens, UniProt P21452); assay: Binding potency of the test substances to NK2-receptors in vitro ([3H]-SR 48968 displacement); conditions: human NK2-receptor in CHO cell membranes, [3H]-SR 48968 (saredutant); average of at least three measurements
[4] = molecular target: T2, human NK2-receptor; assay: Functional cellular test, Ca2+ measurements using FLIPR for NK2 activity; conditions: CHO cells, agonist NKA 10^-7 M;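 note: CHO cells stably expressing the human receptor, loaded with a calcium dye, antagonist inhibition of ligand-evoked intracellular calcium rise read as peak fluorescence change on FLIPR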

## CC(=O)Oc1ccccc1C(=O)N(C)CC(CCN1CCC(C(=O)N(C)C)(N2CCCCC2)CC1)c1ccc(Cl)c(Cl)c1 (stereo not shown)
[1]
  pKi, binding potency to NK3-receptors: 8.0
[2]
  pA2 data for NK3: 8.1
[3]
  pKi, binding potency to NK2-receptors: 8.7
[4]
  pA2 data for NK2: 8.6
